# Key:
# Sequences of proteins named here, by UniProt entry; tags and fusion partners are left off. A change or cut given only in a name is not applied to a line headed by its entry.
# UniProt P16591: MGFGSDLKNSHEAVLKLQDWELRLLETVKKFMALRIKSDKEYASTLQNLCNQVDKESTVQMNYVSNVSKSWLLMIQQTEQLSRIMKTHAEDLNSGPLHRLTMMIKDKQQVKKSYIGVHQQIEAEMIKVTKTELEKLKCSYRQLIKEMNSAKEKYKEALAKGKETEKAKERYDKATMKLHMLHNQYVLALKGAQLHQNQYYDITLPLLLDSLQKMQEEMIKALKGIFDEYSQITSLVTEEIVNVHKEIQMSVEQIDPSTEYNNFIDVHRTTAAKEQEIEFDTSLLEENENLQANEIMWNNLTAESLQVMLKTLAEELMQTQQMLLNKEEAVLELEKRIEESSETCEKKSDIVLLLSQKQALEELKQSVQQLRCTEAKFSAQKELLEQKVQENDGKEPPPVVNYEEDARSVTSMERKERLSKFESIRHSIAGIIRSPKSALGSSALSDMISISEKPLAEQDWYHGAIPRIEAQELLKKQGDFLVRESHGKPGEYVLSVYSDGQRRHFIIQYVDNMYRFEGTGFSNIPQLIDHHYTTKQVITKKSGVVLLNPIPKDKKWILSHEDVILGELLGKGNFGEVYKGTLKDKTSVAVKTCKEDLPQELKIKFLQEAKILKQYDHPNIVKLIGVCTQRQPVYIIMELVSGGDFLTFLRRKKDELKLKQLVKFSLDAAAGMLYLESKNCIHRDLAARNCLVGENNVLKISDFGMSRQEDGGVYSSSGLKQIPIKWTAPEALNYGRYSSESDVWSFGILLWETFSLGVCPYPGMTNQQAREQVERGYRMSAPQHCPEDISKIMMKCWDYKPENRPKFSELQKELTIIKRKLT
# UniProt P42685: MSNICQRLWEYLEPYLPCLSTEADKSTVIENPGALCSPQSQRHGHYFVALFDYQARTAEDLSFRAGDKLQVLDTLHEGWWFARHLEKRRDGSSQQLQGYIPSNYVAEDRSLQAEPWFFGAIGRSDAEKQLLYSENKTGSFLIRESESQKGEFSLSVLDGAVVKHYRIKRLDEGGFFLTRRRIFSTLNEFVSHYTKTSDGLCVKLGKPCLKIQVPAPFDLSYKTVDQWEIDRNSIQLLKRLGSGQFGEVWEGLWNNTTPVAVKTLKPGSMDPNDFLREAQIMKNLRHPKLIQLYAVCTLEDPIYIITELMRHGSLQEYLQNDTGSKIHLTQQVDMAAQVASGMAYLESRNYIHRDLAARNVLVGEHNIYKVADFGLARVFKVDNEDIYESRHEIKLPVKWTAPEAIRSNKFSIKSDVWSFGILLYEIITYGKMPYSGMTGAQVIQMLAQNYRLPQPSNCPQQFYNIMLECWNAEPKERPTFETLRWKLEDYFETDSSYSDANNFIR
# UniProt P36888, whole entry, looked up: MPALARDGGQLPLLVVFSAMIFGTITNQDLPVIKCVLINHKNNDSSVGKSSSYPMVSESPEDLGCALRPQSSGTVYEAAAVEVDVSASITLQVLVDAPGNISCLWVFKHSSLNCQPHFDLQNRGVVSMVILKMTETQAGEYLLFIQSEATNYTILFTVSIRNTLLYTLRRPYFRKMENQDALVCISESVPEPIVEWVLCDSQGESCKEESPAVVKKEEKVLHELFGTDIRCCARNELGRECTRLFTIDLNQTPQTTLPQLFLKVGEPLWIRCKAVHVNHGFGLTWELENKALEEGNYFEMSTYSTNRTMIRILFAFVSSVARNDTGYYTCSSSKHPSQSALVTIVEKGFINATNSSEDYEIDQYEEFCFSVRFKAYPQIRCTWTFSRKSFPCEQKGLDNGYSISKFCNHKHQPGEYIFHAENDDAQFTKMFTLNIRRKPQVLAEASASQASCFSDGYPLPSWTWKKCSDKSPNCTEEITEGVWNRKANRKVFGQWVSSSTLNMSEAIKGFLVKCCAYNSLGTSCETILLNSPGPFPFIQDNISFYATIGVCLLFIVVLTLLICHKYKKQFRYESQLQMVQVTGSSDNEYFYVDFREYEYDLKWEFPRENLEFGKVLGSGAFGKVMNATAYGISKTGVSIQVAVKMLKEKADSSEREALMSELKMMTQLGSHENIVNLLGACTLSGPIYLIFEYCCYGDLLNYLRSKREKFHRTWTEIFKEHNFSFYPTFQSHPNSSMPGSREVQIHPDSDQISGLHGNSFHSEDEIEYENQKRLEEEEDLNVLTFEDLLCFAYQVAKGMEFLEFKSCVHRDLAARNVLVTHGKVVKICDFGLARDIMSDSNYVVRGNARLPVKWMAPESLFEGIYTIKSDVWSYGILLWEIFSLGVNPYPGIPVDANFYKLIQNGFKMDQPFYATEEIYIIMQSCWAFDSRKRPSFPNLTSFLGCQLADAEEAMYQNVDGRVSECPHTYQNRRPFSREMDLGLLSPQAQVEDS
# UniProt Q16513: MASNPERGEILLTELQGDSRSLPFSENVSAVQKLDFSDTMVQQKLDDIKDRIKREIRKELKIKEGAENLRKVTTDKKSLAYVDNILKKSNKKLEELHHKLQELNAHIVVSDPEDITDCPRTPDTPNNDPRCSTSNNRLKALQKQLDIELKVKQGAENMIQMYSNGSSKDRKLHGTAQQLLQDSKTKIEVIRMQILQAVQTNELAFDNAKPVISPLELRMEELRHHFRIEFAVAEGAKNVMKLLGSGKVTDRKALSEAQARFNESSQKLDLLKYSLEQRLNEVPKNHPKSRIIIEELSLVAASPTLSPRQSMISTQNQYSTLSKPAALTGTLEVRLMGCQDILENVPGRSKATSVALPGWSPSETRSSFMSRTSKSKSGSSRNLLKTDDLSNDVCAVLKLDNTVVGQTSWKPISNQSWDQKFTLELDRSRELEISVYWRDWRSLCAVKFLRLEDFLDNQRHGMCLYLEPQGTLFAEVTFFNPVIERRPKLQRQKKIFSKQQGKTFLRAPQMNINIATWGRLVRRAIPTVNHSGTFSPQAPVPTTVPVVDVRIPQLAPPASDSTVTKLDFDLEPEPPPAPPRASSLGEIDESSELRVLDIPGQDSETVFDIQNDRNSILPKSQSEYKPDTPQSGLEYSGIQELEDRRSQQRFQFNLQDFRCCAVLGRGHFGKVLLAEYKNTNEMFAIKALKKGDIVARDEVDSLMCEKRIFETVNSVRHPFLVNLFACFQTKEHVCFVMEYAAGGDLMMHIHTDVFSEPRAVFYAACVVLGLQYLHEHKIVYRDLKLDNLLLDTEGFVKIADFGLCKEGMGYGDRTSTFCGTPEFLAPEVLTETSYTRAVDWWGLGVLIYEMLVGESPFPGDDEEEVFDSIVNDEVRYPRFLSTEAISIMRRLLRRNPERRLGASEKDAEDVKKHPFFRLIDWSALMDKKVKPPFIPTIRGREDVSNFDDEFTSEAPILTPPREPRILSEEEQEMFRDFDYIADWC
# UniProt P10721, whole entry, looked up: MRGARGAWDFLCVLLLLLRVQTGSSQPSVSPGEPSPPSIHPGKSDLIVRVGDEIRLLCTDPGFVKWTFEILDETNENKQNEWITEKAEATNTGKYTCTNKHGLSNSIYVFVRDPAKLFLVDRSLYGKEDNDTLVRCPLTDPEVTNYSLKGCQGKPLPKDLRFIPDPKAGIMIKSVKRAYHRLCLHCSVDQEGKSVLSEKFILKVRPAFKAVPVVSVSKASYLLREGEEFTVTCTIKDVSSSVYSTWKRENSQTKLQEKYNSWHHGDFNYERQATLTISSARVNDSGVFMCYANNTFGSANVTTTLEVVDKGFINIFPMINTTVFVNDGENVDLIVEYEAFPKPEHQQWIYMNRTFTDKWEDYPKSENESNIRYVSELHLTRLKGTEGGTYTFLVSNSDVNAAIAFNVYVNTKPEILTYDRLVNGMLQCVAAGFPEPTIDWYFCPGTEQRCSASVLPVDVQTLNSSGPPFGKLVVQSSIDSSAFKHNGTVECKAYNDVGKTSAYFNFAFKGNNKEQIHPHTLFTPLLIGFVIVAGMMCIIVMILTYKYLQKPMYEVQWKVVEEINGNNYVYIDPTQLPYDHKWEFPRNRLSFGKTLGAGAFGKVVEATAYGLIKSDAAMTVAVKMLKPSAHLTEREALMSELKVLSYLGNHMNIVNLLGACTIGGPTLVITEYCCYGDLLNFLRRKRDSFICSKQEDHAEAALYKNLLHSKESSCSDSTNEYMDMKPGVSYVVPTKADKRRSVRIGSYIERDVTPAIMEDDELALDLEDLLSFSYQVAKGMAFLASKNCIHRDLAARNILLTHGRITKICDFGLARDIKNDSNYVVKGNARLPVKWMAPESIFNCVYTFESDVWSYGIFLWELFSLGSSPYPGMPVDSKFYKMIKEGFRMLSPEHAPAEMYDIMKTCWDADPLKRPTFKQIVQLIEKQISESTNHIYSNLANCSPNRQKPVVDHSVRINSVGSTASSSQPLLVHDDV
# UniProt P41240: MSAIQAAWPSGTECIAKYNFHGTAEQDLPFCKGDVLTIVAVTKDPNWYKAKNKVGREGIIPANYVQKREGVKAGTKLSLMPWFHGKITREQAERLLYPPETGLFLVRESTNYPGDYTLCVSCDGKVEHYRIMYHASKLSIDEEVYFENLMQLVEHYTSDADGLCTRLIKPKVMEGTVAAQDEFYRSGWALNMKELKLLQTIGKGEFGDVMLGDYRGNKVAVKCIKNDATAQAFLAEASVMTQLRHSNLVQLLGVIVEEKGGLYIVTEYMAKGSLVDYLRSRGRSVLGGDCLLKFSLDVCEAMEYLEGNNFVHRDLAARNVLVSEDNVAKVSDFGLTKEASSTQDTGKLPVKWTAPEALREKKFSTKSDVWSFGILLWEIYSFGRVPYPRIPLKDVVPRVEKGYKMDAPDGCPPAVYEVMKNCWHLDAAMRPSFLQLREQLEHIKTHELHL
# UniProt P49841: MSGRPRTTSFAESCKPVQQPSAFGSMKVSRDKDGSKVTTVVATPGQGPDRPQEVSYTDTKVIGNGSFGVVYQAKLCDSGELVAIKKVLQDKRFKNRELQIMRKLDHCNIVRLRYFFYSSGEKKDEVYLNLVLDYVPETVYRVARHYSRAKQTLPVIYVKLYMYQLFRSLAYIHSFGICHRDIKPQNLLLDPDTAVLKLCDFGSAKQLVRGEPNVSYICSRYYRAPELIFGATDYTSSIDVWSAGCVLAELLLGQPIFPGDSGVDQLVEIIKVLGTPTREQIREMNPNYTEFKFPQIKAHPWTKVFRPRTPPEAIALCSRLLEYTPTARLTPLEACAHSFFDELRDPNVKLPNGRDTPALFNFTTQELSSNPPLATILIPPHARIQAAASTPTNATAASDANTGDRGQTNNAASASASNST
# UniProt Q9UK32, whole entry, looked up: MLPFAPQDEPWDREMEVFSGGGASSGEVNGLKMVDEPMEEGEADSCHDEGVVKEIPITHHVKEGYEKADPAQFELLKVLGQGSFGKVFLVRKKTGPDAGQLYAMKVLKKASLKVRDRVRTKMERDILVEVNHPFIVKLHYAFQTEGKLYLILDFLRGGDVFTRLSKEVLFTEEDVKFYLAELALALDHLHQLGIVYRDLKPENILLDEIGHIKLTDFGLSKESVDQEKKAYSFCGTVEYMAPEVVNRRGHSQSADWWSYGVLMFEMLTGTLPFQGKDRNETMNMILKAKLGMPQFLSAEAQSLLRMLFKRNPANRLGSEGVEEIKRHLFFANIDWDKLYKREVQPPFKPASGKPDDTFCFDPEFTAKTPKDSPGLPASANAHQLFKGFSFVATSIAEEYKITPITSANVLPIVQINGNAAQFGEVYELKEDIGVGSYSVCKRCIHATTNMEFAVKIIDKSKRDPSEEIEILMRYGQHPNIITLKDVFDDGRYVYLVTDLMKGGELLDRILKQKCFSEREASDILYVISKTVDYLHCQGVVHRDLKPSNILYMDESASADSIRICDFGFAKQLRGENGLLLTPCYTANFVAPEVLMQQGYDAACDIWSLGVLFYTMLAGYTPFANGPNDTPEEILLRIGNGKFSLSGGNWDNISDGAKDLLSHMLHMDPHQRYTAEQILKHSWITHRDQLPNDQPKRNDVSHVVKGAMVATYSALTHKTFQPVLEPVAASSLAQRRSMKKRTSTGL
# UniProt Q9UBS0: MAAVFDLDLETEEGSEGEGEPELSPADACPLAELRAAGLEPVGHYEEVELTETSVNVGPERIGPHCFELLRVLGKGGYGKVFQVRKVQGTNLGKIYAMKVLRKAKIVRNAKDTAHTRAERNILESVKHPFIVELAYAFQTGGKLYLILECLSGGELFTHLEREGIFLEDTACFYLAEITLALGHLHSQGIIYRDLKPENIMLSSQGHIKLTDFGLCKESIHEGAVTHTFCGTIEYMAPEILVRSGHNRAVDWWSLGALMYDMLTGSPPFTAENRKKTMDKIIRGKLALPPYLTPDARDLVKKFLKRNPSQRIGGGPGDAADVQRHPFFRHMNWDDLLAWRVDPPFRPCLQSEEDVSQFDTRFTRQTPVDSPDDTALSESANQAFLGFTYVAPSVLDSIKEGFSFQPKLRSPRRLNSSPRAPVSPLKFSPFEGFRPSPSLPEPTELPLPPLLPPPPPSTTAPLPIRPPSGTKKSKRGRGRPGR
# Test in all cases: radiometric filter-binding kinase assay, Kinase HotSpot
# Details in all cases: compound 0.5 µM; ATP 10 µM
# MAP4K2 (human) = MAP4K2 (human) (UniProt Q12851)
# CSNK1G1 (human) = CSNK1G1 (human) (UniProt Q9HCP0)
# DAPK3 (human) = DAPK3 (human) (UniProt O43293)
# FER (human) = FER (human) (UniProt P16591)
# FRK (human) = FRK (human) (UniProt P42685)
# RPS6KB1 (human) = RPS6KB1 (human) (UniProt P23443)
# MYLK (human) = MYLK (human) (UniProt Q15746)
# [1] = molecular target: JAK1 JH1 catalytic (human) (UniProt P23458)
# GRK7 (human) = GRK7 (human) (UniProt Q8WTQ7)
# TYRO3 (human) = TYRO3 (human) (UniProt Q06418)
# RET (human) = RET (human) (UniProt P07949)
# PLK3 (human) = PLK3 (human) (UniProt Q9H4B4)
# MLTK (human) = MLTK (human) (UniProt Q9NYL2)
# NTRK3 (human) = NTRK3 (human) (UniProt Q16288)
# EPHA2 (human) = EPHA2 (human) (UniProt P29317)
# NEK1 (human) = NEK1 (human) (UniProt Q96PY6)
# CAMK1G (human) = CAMK1G (human) (UniProt Q96NX5)
# PIM1 (human) = PIM1 (human) (UniProt P11309)
# TGFBR1 (human) = TGFBR1 (human) (UniProt P36897)
# GSG2 (human) = GSG2 (human) (UniProt Q8TF76)
# FLT3 (human) = FLT3 (human) (UniProt P36888)
# EPHA4 (human) = EPHA4 (human) (UniProt P54764)
# PKN2 (human) = PKN2 (human) (UniProt Q16513)
# KIT (human) = KIT (human) (UniProt P10721)
# PRKG2 (human) = PRKG2 (human) (UniProt Q13237)
# CSK (human) = CSK (human) (UniProt P41240)
# NLK (human) = NLK (human) (UniProt Q9UBE8)
# CSNK1G2 (human) = CSNK1G2 (human) (UniProt P78368)
# KDR (human) = KDR (human) (UniProt P35968)
# AURKB (human) = AURKB (human) (UniProt Q96GD4)
# GSK3B (human) = GSK3B (human) (UniProt P49841)
# RPS6KA6 KD1 KD2 (human) = RPS6KA6 KD1 KD2 (human) (UniProt Q9UK32)
# TAOK2 (human) = TAOK2 (human) (UniProt Q9UL54)
# RAF1 (human) = RAF1 (human) (UniProt P04049)
# ALK (human) = ALK (human) (UniProt Q9UM73)
# ROCK2 (human) = ROCK2 (human) (UniProt O75116)
# FGFR4 (human) = FGFR4 (human) (UniProt P22455)
# PRKD1 (human) = PRKD1 (human) (UniProt Q15139)
# PRKCG (human) = PRKCG (human) (UniProt P05129)
# MARK1 (human) = MARK1 (human) (UniProt Q9P0L2)
# RPS6KB2 (human) = RPS6KB2 (human) (UniProt Q9UBS0)
# NEK9 (human) = NEK9 (human) (UniProt Q8TD19)
compound,measurement,setting,value
CO[C@H]1[C@@H](OC)C[C@H](C)[C@@H](OC)C2=CC(=O)C=C(NC(=O)/C(C)=C\C=C/[C@H](OC)[C@@H](OC(N)=O)/C(C)=C\[C@@H]1C)C2=O,residual activity,MAP4K2 (human),120%
same,residual activity,CSNK1G1 (human),101%
same,residual activity,DAPK3 (human),98.9%
same,residual activity,FER (human),88.2%
same,residual activity,FRK (human),96.7%
same,residual activity,RPS6KB1 (human),95.6%
same,residual activity,MYLK (human),97.6%
same,residual activity,[1],99%
same,residual activity,GRK7 (human),103%
same,residual activity,TYRO3 (human),96.9%
same,residual activity,RET (human),95.7%
same,residual activity,PLK3 (human),100%
same,residual activity,MLTK (human),92.2%
same,residual activity,NTRK3 (human),117%
same,residual activity,EPHA2 (human),107%
same,residual activity,NEK1 (human),100%
same,residual activity,CAMK1G (human),105%
same,residual activity,PIM1 (human),98.8%
same,residual activity,TGFBR1 (human),103%
same,residual activity,GSG2 (human),91.9%
same,residual activity,FLT3 (human),96.8%
same,residual activity,EPHA4 (human),106%
same,residual activity,PKN2 (human),100%
same,residual activity,KIT (human),106%
same,residual activity,PRKG2 (human),98.2%
same,residual activity,CSK (human),98%
same,residual activity,NLK (human),102%
same,residual activity,CSNK1G2 (human),97.5%
same,residual activity,KDR (human),90.3%
same,residual activity,AURKB (human),93.6%
same,residual activity,GSK3B (human),98.7%
same,residual activity,RPS6KA6 KD1 KD2 (human),104%
same,residual activity,TAOK2 (human),89.4%
same,residual activity,RAF1 (human),92.7%
same,residual activity,ALK (human),89.7%
same,residual activity,ROCK2 (human),95.4%
same,residual activity,FGFR4 (human),105%
same,residual activity,PRKD1 (human),97.3%
same,residual activity,PRKCG (human),90.4%
same,residual activity,MARK1 (human),90.5%
same,residual activity,RPS6KB2 (human),105%
same,residual activity,NEK9 (human),103%

# From the kinase profiling compilation of Christmann-Franck et al. (2016)
